The data set deals with Chinese hamster ovary cells (CHO-WBL). Put plainly: In vitro micronucleus assay with Chinese hamster ovary cells. How it is done: In the major micronucleus assay, CHO-WBL cells were exposed to at least 3 concentrations of the test object, while vehicle control group and positive control group were set up, with 2 replicated wells for each dose group. In inactivated test system, the administration lasted for 3 and 24 hours, and in S9 activated test system, the exposure to the test object lasted for 3 hours.
When choosing the highest dose for micronucleus frequency assay, the cytotoxicity of dose group of the test object should not substantially exceed 50% of that of the corresponding vehicle control group.
On the premise that the test is valid, the test results are evaluated according to the following criteria:
If the test object simutaneously meets the following criteria, it can be considered as positive:
A significant increase in micronucleus frequency is observed in one or more concentration groups.
If none of the above three points is met, the test object can be considered as negative.

Regarding Mitomycin C, the “% binuclear cells containing micronucleus” value (3-hour administration without metabolic activation, 0.3 µg/ml) was 11.85% and the “% binuclear cells containing micronucleus” value (24-hour administration without metabolic activation, 0.1 µg/ml) came to 22.8%.
